From PubChem BioAssay AID1346985 (Tox21, 2019) come the findings set out here.

The entries are a selection whose mix differs from that of the whole data set. Records with an inconclusive call do not appear. The source made the active and inactive calls. Calls come from the whole dose curve; as a rule, active = well fitted activation curve with a large enough effect in the repeat runs; inconclusive = weak or mixed curves; inactive = flat fitted curve, though single readings scatter.
% is set by controls: 0 for no effect and ±100 for the full control effect; potency is the fitted concentration of half-maximal effect.

The assay addresses Nuclear receptor subfamily 1 group I member 2 (Homo sapiens) (UniProt O75469). As to the kind of experiment: Human pregnane X receptor (PXR) activation by small molecules, qHTS assay. Note: nearly all actives have a fitted effect of over 40% in size. Particulars: DPX-2 HepG2 CYP3A4-luciferase, 24 h; series mostly up to 38.3 µM; activation: at the top concentration. From the text:
National Center for Advancing Translational Sciences [NCATS]
NIH Chemical Genomics Center [NCGC]
U.S. Environmental Protection Agency [EPA]
National Institutes of Environmental Health Sciences [NIEHS]
National Toxicology Program [NTP]
The Pregnane X receptor (PXR), a ligand activated nuclear receptor plays a critical role in the regulation of genes involved in drug metabolism and transporters. Activation of PXR may be involved in the unwanted adverse drug-drug interactions. […] Therefore, identification of compounds with the potential for PXR activation can be of importance in improving the efficacy of drugs with less toxicity and avoiding drug-drug interactions.
DPX-2 (Puracyp, Inc.) cell lines, used for screening against human PXR activation has HepG2 cells co-transfected with a PXR response element and a luciferase construct containing CYP3A4 promoter. Increase in luciferase activity can be used to identify the compounds that activate the PXR pathway.
DPX-2 cells were dispensed at 2,000 cells per well in 5uL of assay medium into white, solid-bottom 1536-well plates using a Multidrop Combi dispenser (Thermo Scientific). […] Then 5ul One-Glo assay reagent (Promega) was added to each plate by a Flying Reagent Dispenser (FRD, Aurora Discovery) and following 30 min incubation at room temperature, luciferase activity was quantified on a ViewLux plate reader (Perkin Elmer).
On the technique in general: In qHTS, concentration-response curves come from the screen itself.
For `CCC(=O)N(c1ccccc1)C1CCN(CCc2ccccc2)CC1`, the Potency was active: 10 µM. With `CN(CCCl)CCCl`, the “activation” value is inactive: 6.43%.
